Experimental data taken from US20080241211A1, “DEVICE WHICH ENHANCES THE BIOLOGICAL ACTIVITY OF LOCALLY APPLIED GROWTH FACTORS WITH PARTICULAR EMPHASIS ON THOSE USED FOR BONE REPAIR” (University of Southern California, priority 2007, published 2008).

Test system: Pre-myoblast cell line C2C12
Assay: BMP-2 induced ALP activity in C2C12 cell culture
Format: cell-based
Settings: FIG. 3
Description: DBM activity test: Osteoinductivity of BMP-2 and DBM can be quantitatively analysis by using cell culture method. Pre-myoblast cell line C2C12 was used for test BMP-2 induced ALP activity.
C2C12 was plated in 96-well culture plate with density of 12.5K/well in 10% FBS/DMEM for 5 hours attachment. Medium was changed into 1% testing medium followed by adding different amount of BMP-2 and/or naringin solution. Cells were incubated at 37° C. for another 48 hours. Cell membrane associated ALP activity was tested by standard ALP assay.
C2C12 was plated in 96-well culture plate with density of 12.5K/well in 10% FBS/DMEM for 5 hours attachment. Medium was changed into 1% testing medium. Forty nano-gram of rhBMP-2 in 10 μl was added in every well and 1-1600 nM of naringin was added 10 minutes later. […] The sequence and time interval between the addition of growth factor and enhancer is also critical to their biological effect.
When naringin is added, however, BMP-2 activity is increased four-fold to 0.4. […] Therefore, the combination of naringin and BMP-2 is considered to show “synergistic effect”.
Induction of differentiation by naringin is associated with increased bone morphogenetic protein-2 (BMP-2) production. […] (see FIG. 3).
Naringin dose range in vitro on C2C12: around 12.5 to 2000 nM, lower than most phytoestrogen dose, but within the range of non-productive actions of estrogen derivatives. […]

B1: BMP-2: bone morphogenetic protein-2, osteoinductive agent (protein, UniProt P12643 283-396, looked up)
Bone morphogenetic protein 2: QAKHKQRKRLKSSCKRHPLYVDFSDVGWNDWIVAPPGYHAFYCHGECPFPLADHLNSTNHAIVQTLVNSVNSKIPKACCVPTELSAISMLYLDENEKVVLKNYQDMVVEGCGCR
activity in the alkaline phosphate (ALP) assay (BMP-2 in the absence of naringin): 0.1
effect of BMP-2 on ALP activity (C2C12, 48 hours): dose dependently increased ALP activity
